According to patent US20230346796A1 (priority 2010, published 2023):

Tests used:
[1] = test system: healthy volunteers and patients undergoing a colonoscopy; experiment: MOAA/S pharmacodynamic analysis of CNS 7056 (sedation, simpler model); type: in vivo, human
patients = experiment: Study CNS 7056-003 (single doses of CNS 7056 without fentanyl); details: single doses 0.1 to 0.2 mg/kg without concomitant fentanyl
[2] = test system: patients undergoing a colonoscopy; experiment: Study CNS 7056-002 (Phase Ib, CNS 7056 with fentanyl, colonoscopy)

SMILES: COC(=O)CC[C@@H]1N=C(c2ccccn2)c2cc(Br)ccc2-n2c(C)cnc21 [CNS 7056, 3-[(4S)-8-bromo-1-methyl-6-(2-pyridinyl)-4H-imidazo[1,2-a][1,4]benzodiazepin-4-yl] propionic methyl ester]
- EC50, theta (RSE%) ([1]; MOAASALL01S, combined data sets): 0.349 (4.35) µg/ml
- EC50, theta (RSE%) ([1]; MOAASALL09S, fentanyl dose as covariate): 0.38 (7.68) µg/ml
- EC50, theta (RSE%) ([1]; MOAASALL18S, scope effect): 0.342 (4.38) µg/ml
- EC50, theta (RSE%) ([1]; MOAASALL21S, additional stimuli 1 min): 0.336 (4.34) µg/ml
- EC50, theta (RSE%) ([1]; MOAASALL22S, additional stimuli 1 min, size of spike taken into account): 0.336 (4.31) µg/ml
- EC50, theta (RSE%) ([1]; MOAASALL29S, scope effect, stimuli 1 / 2 min): 0.323 (4.45) µg/ml
- EC50, theta (RSE%) ([1]; MOAASALL31S, scope effect, stimuli 1 / 2 min): 0.323 (4.42) µg/ml
- EC50, theta (RSE%) ([1]; MOAASALL32S, scope effect, stimuli 1 / 2 min): 0.323 (4.48) µg/ml
- EC50, theta (RSE%) ([1]; MOAASALL33S, scope effect with IIV): 0.342 (4.41) µg/ml
- EC50 in the absence of fentanyl ([1]; model MOAASALL05S): 0.364 µg/mL
- EC50 in the presence of fentanyl ([1]; model MOAASALL05S): 0.338 µg/mL
- patients with sufficient sedation (patients): 32-64%
- related AESIs (adverse events of special interest) ([2]; Phase Ib study, 45 subjects): 37
- Success rate n/N (%) ([2]; combined success rate of 2 highest doses, Phase Ib (Study CNS7056-002)): 24/29 (82.8%)
